# Apparent affinities of Ab-14 variants for a coronavirus HR2 peptide

All variants were tested on one target, the spike HR2 peptide PDVDLGDISGINAS (SARS-CoV-2).

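The parent was found by panning a naive human phage display library on the peptide. Designed CDR sequences, proposed from the first random library and measured here. Group labels follow the data file (Ctrl: baseline library sampled from a position-specific scoring matrix, with some repeated check sequences; Rand: our label for a block that the file lists under HC and that is probably the random mutants of the ten best first-round binders; En: ensemble of fine-tuned language models; GP: Gaussian process model; GPLM: also part of the Gaussian process libraries; HC: hill climbing; Gen: genetic algorithm; Gibbs: Gibbs sampling; a sequence that several methods proposed may carry one label only). In AlphaSeq, yeast of one mating type display the scFv and yeast of the other type display the target. Binding brings cells together so that they mate, and sequencing counts the barcode pairs among the diploids. Scores were corrected for input abundance and mapped to Kd with protein pairs of known affinity run in the same pool. There are six technical replicates.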

Parent: Ab-14, a human scFv built as VH, the linker GGGGSGGGGSGGGGS, VL. Only the CDRs of the heavy chain vary.
VH: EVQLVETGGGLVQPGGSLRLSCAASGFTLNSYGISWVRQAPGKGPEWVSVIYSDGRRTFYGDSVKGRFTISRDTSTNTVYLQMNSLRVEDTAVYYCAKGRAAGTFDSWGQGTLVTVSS
VL: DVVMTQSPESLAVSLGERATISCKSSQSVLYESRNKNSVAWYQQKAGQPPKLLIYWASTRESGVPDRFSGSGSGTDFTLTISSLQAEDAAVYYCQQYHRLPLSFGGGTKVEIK

The parent's heavy chain CDRs are GFTLNSYGIS, VIYSDGRRTFYGDSVK, GRAAGTFDS; each variant's own CDRs replace them letter for letter.
Numbers give log10(Kd / nM), so 0 is 1 nM and 3 is 1 µM. Smaller is tighter.
The mean shown is taken over the replicates in which the pair was detected.
"not detected" means that the variant was in the library but no mating with the target was seen in any replicate; the authors take this as a sign of poor binding, and no number exists.

CDR-H1	CDR-H2	CDR-H3	group	mean log10 Kd (nM)	seen in
GFDLNEYGIS	VIYADGRRTAYIDSVK	GETAGTFDL	En_HC	-0.50	6/6
GFELNQYGIS	VIYSDGRRTFYGDSVK	GRAAGRTDS	Ctrl	not detected	0/6
GFTLNDYGIS	VIYSDGRRTFYGDSVK	GPAALTFIS	Rand	not detected	0/6
GFTLESYGIS	VIYSDGRRTFYGDSVK	GRAATTFDS	Ctrl	not detected	0/6
GFTLNSYGIS	VIYSDGRRTFYEDSVK	GREAGTFDK	Ctrl	0.79	6/6
GFSLNSYGIS	VIYADGRRTFYGDSVK	GRVAGTFDS	GPLM_Gen	-0.52	6/6
GFQLNSYGIS	VIYSDGRRTFYVDSVK	GREAGTFDT	GP_Gibbs	1.05	6/6
GFDLNEYGIS	VIYADGRRTFYADSVK	GNAAGTFVV	En_HC	0.92	6/6
GFDLNEYGIS	VIYADGMRTAYSDNVK	GQNAGTFDV	En_Gen	-0.76	6/6
GPTLNEYGIS	VIYSDGRRTFYTDSVK	GRFAGCFDS	Rand	not detected	0/6
GFTLNNYGIS	VIYSDGRRTFYADSVK	GRAAGTFDS	GPLM_HC	1.01	6/6
GFDLEDYGIS	VIYADGKRSFVSNSVK	GQLGNAFSM	En_Gibbs	not detected	0/6
GFDLNEYGIS	VIYADGMRTAYSDDVK	GENAGTFDQ	En_Gen	0.17	6/6
GFDLNEYGIS	VIYADGMRTQYIDSVK	GNAAGTFDV	En_HC	0.01	6/6
GFDLNEYGIS	VIYADGRRTAYSDSVK	GHAAGTFDV	En_HC	-0.28	6/6
GFTLNSYGIS	VIYSDGRRTFYGDSVR	GSAAITFDA	Ctrl	not detected	0/6
GFTLNSYGIS	VIASDGRRTFYGDSVK	GRAAGTMVS	Ctrl	1.63	1/6
GFSLNSYGIS	VIYSDGRRTFYKDSVK	GNAAGTFDS	GPLM_Gen	1.42	6/6
GFTLNEYGIS	VIYSDGRRTFYGDSVK	GRQAGTFDD	GP_HC	2.42	6/6
GFELNEYGIS	VIYSDGRRTFYHDSVK	GKAAGTFDS	GP_Gen	0.58	6/6
GFTLNSYGIS	VIYSDGQRTFYGDSVK	GQTAGTFDV	GP_Gibbs	0.39	4/6
GFDLNSYGIS	VIYSDGRRTFYGDSVK	GRTAGTFDI	GPLM_Gibbs	0.07	6/6
GFDLNSYGIS	VIYSDGRRTFYGDDVK	GRQAGTFDS	GP_Gen	1.08	6/6

The remaining entries, values ahead:

mean log10 Kd (nM)	seen in	CDR-H1	CDR-H2	CDR-H3	group
-0.01	6/6	GFDLNEYGIS	VIYADGRRTFYSDSVK	GQTGGTFDI	En_HC
-0.01	6/6	GFDLNEYGIS	VIYADGKRTAYADNVK	GNQAGTFDV	En_Gen
-0.59	6/6	GFDLNEYGIS	VIYADGRRTAYIDSVK	GTNAGTFDV	En_Gen
0.31	6/6	GFELNSYGIS	VIYSDGRRTFYGDSVK	GAEAGTFDS	GP_Gen
0.44	5/6	GFSLNEYGIS	VIYSDGRRTFYGDSVK	GRTAGTFDK	GPLM_Gen
-0.44	6/6	GFDLDEYGIS	VIYADGKRTAYSDSVK	GNVAGTFDV	En_Gen
0.43	6/6	GFSLNSYGIS	VIYSDGRRTFYADSVK	GVNAGTFDS	GPLM_Gen
not detected	0/6	GFDLNSYGYS	VIYSDGRRTFYGDVRK	GVAAGWFNS	Rand
not detected	0/6	GFTLNSYGIS	VIYSDGRRTFYGDSVK	RRAAGTFDV	Ctrl
not detected	0/6	GFELQEYGIS	VIYADGMKQSYRDKFK	GGIAGNFDM	En_Gibbs
1.83	2/6	GFNLNSYGIS	VIYSDGRRTFYGDSVK	GRAAGTFDK	Ctrl
-0.17	6/6	GFSLNSYGIS	VIYADGRRTFYGDSVK	GQAAGTFDT	GPLM_Gen
-1.00	6/6	GFDLNEYGIS	VIYADGRRTAYADNVK	GEVAGTFDL	En_Gen
not detected	0/6	GDALDEYGIS	VIYADGMRSSYSNDVK	GTNFGNKMV	En_Gibbs
2.08	1/6	GFNLNEYGIS	VIYADGVRYAYIDSVK	GVVTLKNLY	En_Gibbs
-0.18	6/6	SFSLDDYGIS	VIYADGMRKAYVDEVK	GYVAGTFDI	En_Gibbs
3.81	2/6	GFDLGEYGIS	VIYADGSRKAYATSFK	GGSGYFDGV	En_Gibbs
not detected	0/6	GFDINEYGIS	VIYADGKRMAYAWKVK	GLMAGTVIV	En_Gibbs
-0.26	6/6	GFDLNEYGIS	VIYADGVRTAYSDSVK	GENAGTFDQ	En_Gen
0.64	3/6	GFTLDSYGIS	VIYSDGRRVFYGDSVK	GRAAGTFDS	Ctrl
-0.72	6/6	GFDLDEYGIS	VIYADGQRTAYSDSVK	GSNAGTFDV	En_Gen
-0.34	6/6	GFNLNEYGIS	VIYADGVRTFYSDSVK	GEVAGTFDV	En_HC
-0.46	6/6	GFDLNEYGIS	VIYADGRRTFYKDSVK	GTNAGTFDV	En_HC

From the list, the first 5 with no signal in any replicate:

| CDR-H1 | CDR-H2 | CDR-H3 | group | mean log10 Kd (nM) | seen in |
|---|---|---|---|---|---|
| GFELNQYGIS | VIYSDGRRTFYGDSVK | GRAAGRTDS | Ctrl | not detected | 0/6 |
| GFTLNDYGIS | VIYSDGRRTFYGDSVK | GPAALTFIS | Rand | not detected | 0/6 |
| GFTLESYGIS | VIYSDGRRTFYGDSVK | GRAATTFDS | Ctrl | not detected | 0/6 |
| GPTLNEYGIS | VIYSDGRRTFYTDSVK | GRFAGCFDS | Rand | not detected | 0/6 |
| GFDLEDYGIS | VIYADGKRSFVSNSVK | GQLGNAFSM | En_Gibbs | not detected | 0/6 |

The parent sequence was in this pool as ten entries: three were never detected, three once, and four in most replicates, with averages from 0.34 to 2.37.
A sequence measured in both rounds can read differently, since the two assays cover different ranges.
Background: pairings of all heavy chain designs with three empty control strains gave a value in 1% of cases (median 2.08, 5th percentile 0.84). Values in that range, when seen in few replicates, are hard to tell from nonspecific mating.
The authors averaged sequences with at least three values out of six and counted those with two or fewer as poor binders.

Reference: Li et al. 2023, doi:10.1038/s41467-023-39022-2. File: FLAb, binding data.